Measured affinities in a library of Ab-91 heavy chain variants

Target peptide (SARS-CoV-2 spike, HR2 region): PDVDLGDISGINAS

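Phage display of a naive human antibody library on the peptide gave the parent. Library AAYL51 holds single substitutions and randomly drawn double and triple substitutions in the CDRs. The scFvs were displayed on barcoded MATa yeast, the peptide on MATalpha yeast. The frequency of each diploid, read from paired DNA barcodes, reflects how well the two displayed proteins bind. The ratio of observed to expected reads was calibrated, replicate by replicate, on BCL2-family standards whose Kd was known from biolayer interferometry. Mating was done three times.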

Parent scFv Ab-91: VL joined to VH by a 15-residue (Gly4Ser)3 linker. Changes lie in the heavy chain CDRs alone.
VL: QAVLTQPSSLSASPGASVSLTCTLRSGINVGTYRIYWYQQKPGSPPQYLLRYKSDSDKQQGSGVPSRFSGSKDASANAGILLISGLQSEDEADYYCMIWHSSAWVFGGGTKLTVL
VH: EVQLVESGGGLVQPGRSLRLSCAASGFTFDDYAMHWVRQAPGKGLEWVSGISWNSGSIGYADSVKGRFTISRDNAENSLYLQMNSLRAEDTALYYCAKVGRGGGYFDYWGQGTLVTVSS

Positions count from residue 1 of the parent VH; H35T puts T in place of H.
Every variant below is changed at G59 of the VH (sequential numbering).
Values are apparent Kd, the geometric mean of the replicates that gave a signal; lower means stronger binding.
Where no diploid with the target was found in any replicate, the entry reads "no signal": below detection, most likely a poor binder, though not proof of it.
Empty control strains, which show no peptide, gave a signal in 21% of pairings with library AAYL51; the median was 34 µM and 95% of these signals were weaker than 1.8 µM. No background was subtracted.

| changes | Kd | replicates with signal |
|---|---|---|
| H35T G59M R101G | 59 µM | 3 of 3 |
| D30V G59T G103P | 23 µM | 2 of 3 |
| D30F Y32Q G59S | 300 µM | 3 of 3 |
| S52V I58Y G59K | 5.5 µM | 1 of 3 |
| G59N A61P | no signal | 0 of 3 |
| G59P R101C | 12 µM | 1 of 3 |
| H35E G59Q F106T | no signal | 0 of 3 |
| G59T K65C R101A | 81 µM | 1 of 3 |
| G26W I51G G59I | 37 µM | 1 of 3 |
| T28P G59E A61Q | no signal | 0 of 3 |
| S57L G59R Y105K | no signal | 0 of 3 |
| G59Y V64P F106K | 49 µM | 2 of 3 |
| S55V G59M G104F | 84 µM | 1 of 3 |
| S57F G59T G104R | 4.5 µM | 2 of 3 |
| G56H G59S Y60N | 190 µM | 2 of 3 |
| G59E Y60W Y108I | no signal | 0 of 3 |
| T28A D31F G59L | 5.0 µM | 2 of 3 |
| T28D W53I G59W | 16 µM | 2 of 3 |
| Y32L G59A S63R | no signal | 0 of 3 |
| S52A W53S G59M | 8.5 µM | 1 of 3 |
| D31M G59C G104H | no signal | 0 of 3 |
| G59N V99W | 86 µM | 1 of 3 |
| T28G G59E S63V | no signal | 0 of 3 |
| G26E G59T V64P | no signal | 0 of 3 |
| F29P S55C G59W | 130 µM | 1 of 3 |
| G59E V99A G104A | 11 µM | 3 of 3 |
| G59I A61K S63Q | 460 µM | 3 of 3 |
| D31M G59D V64I | no signal | 0 of 3 |
| G50W G59A S63Y | no signal | 0 of 3 |
| G59P | no signal | 0 of 3 |
| F27Y W53F G59A | no signal | 0 of 3 |
| Y32A G59P Y105P | 16 µM | 1 of 3 |
| M34W G59I G104S | 130 µM | 2 of 3 |
| H35F S52T G59Y | 55 µM | 2 of 3 |
| W53T G59N S63F | 170 µM | 2 of 3 |
| G59L | no signal | 0 of 3 |
| G26N I58N G59N | 44 µM | 1 of 3 |
| G59T D107F | 17 µM | 1 of 3 |
| G59Y Y60T V99S | 17 µM | 2 of 3 |
| G59D V64F Y105P | no signal | 0 of 3 |
| G59R V64Q G100A | no signal | 0 of 3 |
| G59F Y60C G100N | no signal | 0 of 3 |
| F29M G59V Y60C | no signal | 0 of 3 |
| I58F G59F S63G | 62 µM | 2 of 3 |
| G59N A61D K65Y | 72 µM | 3 of 3 |
| G26A G59R G102K | 57 µM | 3 of 3 |
| A33W N54L G59T | no signal | 0 of 3 |
| G59S V99A Y105E | 3.1 mM | 2 of 3 |
| Y32D G59S G104T | no signal | 0 of 3 |
| H35L S52H G59L | no signal | 0 of 3 |
| A33C G59P | 1.2 µM | 1 of 3 |
| D30E G59V Y105W | no signal | 0 of 3 |
| T28N I51C G59W | no signal | 0 of 3 |
| T28R I58P G59N | 53 µM | 2 of 3 |
| F29L Y32F G59V | 280 µM | 2 of 3 |
| S55Y I58T G59C | no signal | 0 of 3 |
| A33R G59F D107W | 550 µM | 2 of 3 |
| G26I G59M | 75 µM | 2 of 3 |
| G26A G59P G102R | no signal | 0 of 3 |
| I51C G59L | no signal | 0 of 3 |
| S57W G59L | 210 µM | 2 of 3 |
| M34W G59K K65C | no signal | 0 of 3 |
| F27H Y32W G59F | no signal | 0 of 3 |
| G26Y D31I G59T | no signal | 0 of 3 |
| G26K D31I G59E | no signal | 0 of 3 |
| G56R G59K D107G | 37 µM | 1 of 3 |
| T28K G59Y | 1.2 mM | 2 of 3 |
| H35T I58D G59D | 130 µM | 2 of 3 |
| Y32P S57V G59S | no signal | 0 of 3 |

The first 7 entries again:

| changes | Kd | replicates with signal |
|---|---|---|
| H35T G59M R101G | 59 µM | 3 of 3 |
| D30V G59T G103P | 23 µM | 2 of 3 |
| D30F Y32Q G59S | 300 µM | 3 of 3 |
| S52V I58Y G59K | 5.5 µM | 1 of 3 |
| G59N A61P | no signal | 0 of 3 |
| G59P R101C | 12 µM | 1 of 3 |
| H35E G59Q F106T | no signal | 0 of 3 |

For reference, the parent read 72 nM as the reference entry and 7.5 nM as a member of this library.

From the AlphaSeq antibody data of Engelhart et al. 2022 (doi:10.1038/s41597-022-01779-4), copy in the FLAb collection.